The target of the series is T1, human PXR (Homo sapiens, UniProt O75469).
T1 construct: host or cells: DPX2 (HepG2)
T1 sequence (O75469 1-434): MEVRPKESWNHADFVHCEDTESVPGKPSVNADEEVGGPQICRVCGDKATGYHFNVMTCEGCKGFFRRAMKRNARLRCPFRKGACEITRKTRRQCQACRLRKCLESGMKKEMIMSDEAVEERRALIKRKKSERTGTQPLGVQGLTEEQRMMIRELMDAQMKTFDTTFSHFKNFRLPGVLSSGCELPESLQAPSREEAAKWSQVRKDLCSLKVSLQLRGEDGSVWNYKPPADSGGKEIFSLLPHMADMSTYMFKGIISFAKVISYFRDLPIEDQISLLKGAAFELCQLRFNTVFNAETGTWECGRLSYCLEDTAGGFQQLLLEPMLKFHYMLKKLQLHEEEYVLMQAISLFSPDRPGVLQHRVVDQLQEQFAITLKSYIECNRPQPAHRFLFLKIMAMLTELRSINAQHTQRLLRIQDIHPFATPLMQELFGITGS
Briefly: PXR induction assay in DPX2 cells (luciferase reporter). Format: cell-based. How it is done: 1. The potential of the test compounds to induce the activity of drug metabolism enzymes by in vitro activating PXR was evaluated. EC50 values were obtained by assaying different concentrations of test compounds (30, 10, 3.33, 1.11, 0.370 and 0.123 μM) by in vitro activating PXR. The concentrations of the positive control rifampicin were 20, 5, 1.25, 0.312, 0.0781 and 0.195 μM.
1) DPX2 (HepG2 cells were stably transfected with the human PXR gene and the fluorescent reporter gene) cells were purchased from Puracyp (Carlsbad, CA).
2) DPX2 cells were cultured in a T-75 culture flask in a 37° C., 5% CO2 incubator with 95% relative humidity. When covering 80-90% of the bottom of the culture flask, the cells were digested. […]
1) After […] of drug treatment, quantification of PXR activation could be performed on the culture. […]
5) The ONE-Glo reagent was poured into a reagent reservoir, and then 50 μL was transferred to each well using a multi-channel pipette. […] After the incubation, the luminescence value of each well was read using a luminometer.
The luciferase activity was expressed in terms of […], where RLU is the mean luminescence intensity value of two replicates of each concentration of each compound, and RFU is the mean fluorescence intensity of two replicates of each concentration of each compound. […]
Background: A reporter such as luciferase makes a cellular process visible.

As for `CO[C@H]1/C=C/O[C@@]2(C)Oc3c(C)c(O)c4c(O)c(c(/C=N/N5CCN(C)CC5)c(O)c4c3C2=O)NC(=O)/C(C)=C\C=C\[C@H](C)[C@H](O)[C@@H](C)[C@@H](O)[C@@H](C)[C@H](OC(C)=O)[C@@H]1C` [Rifampicin, rifampicin, reference compound], the Induction fold reads like this: (compound concentration 0.0195 μM) 1.33; (compound concentration 20.0 μM) 17.60.

For the origin of these results see patent US20240140963A1, “FUSED TRICYCLIC CYCLIN-DEPENDENT KINASE INHIBITOR, AND PREPARATION METHOD THEREFOR AND PHARMACEUTICAL USE THEREOF” (Tuojie Biotech (Shanghai) Co., Ltd., priority 2021, published 2024).
